The record followed here is PubChem BioAssay (Tox21).

The chains behind the UniProt entries cited, without tags or fusion partners. Where a name states a change or a piece, a line headed by the entry shows the natural chain unless it says otherwise.
UniProt Q14994: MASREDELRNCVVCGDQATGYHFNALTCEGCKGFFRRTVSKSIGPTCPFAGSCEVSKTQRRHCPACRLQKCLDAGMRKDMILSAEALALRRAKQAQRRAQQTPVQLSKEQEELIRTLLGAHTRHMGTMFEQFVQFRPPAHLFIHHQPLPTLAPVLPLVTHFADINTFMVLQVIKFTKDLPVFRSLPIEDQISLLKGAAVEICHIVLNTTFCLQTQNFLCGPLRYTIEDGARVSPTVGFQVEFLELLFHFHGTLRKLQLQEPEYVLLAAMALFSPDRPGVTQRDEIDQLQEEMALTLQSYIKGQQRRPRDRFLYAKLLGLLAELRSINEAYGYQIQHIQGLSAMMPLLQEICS
UniProt P16473, whole entry, looked up: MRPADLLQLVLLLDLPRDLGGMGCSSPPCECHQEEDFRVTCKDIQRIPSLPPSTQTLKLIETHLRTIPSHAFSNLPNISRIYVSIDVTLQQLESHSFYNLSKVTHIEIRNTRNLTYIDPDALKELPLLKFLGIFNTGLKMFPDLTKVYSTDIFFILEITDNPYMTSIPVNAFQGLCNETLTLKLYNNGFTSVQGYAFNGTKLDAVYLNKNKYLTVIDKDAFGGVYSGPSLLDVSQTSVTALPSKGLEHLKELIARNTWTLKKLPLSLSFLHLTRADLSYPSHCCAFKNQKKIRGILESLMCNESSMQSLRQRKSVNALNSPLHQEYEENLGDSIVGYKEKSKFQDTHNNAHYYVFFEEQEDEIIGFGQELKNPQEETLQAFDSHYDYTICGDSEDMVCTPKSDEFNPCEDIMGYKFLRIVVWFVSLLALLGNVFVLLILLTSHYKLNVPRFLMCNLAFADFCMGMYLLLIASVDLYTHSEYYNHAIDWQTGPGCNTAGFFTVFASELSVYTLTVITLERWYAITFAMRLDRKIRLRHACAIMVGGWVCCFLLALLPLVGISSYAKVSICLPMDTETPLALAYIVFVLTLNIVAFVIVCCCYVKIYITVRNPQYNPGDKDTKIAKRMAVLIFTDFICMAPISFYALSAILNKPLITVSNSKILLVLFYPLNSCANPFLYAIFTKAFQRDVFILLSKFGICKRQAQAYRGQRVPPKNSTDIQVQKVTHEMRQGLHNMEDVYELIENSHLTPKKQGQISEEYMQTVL

Experiment [1] concerns the target Nuclear receptor subfamily 1 group I member 3 (Homo sapiens) (UniProt Q14994). Briefly: qHTS assay to identify small molecule antagonists of the constitutive androstane receptor (CAR) signaling pathway (AID 1224838).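 Further: HepG2 cells stably expressing hCAR with CYP2B6 luciferase reporter stimulated by CITCO; nearly all actives have a fitted effect of over 40% in size.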 On the technique in general: In qHTS, concentration-response curves come from the screen itself.
The target is the same in experiment [2]. Briefly: qHTS assay to identify small molecule agonists of the constitutive androstane receptor (CAR) signaling pathway (AID 1224839).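 Further: HepG2 cells stably carrying human CAR and a CYP2B6 luciferase reporter; nearly all actives have a fitted effect of over 15% in size.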 Conditions: HepG2 hCAR CYP2B6-luciferase, agonist mode, 24 h.
A short description of experiment [3]: qHTS assay to identify small molecule antagonists of the estrogen related receptor signaling pathway with the pleiotropic PPARgamma coactivator (PGC) from Tox21 10K library - cell viability counter screen (AID 1224840; active means well fitted cell-killing curve with a large enough effect in the repeat runs, not every such curve was filed as active; further: nearly all actives have a fitted effect of over 40% in size). To be noted: PGC/ERR reporter cells viability, CellTiter-Fluor, 17.5 h. An outline of the steps: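 Following seeding of 2,000 PGC/ERR cells/well and 6 hours' incubation, test compounds were delivered in DMSO. The plates then sat 17.5 hours at 37 C before a fluorogenic live-cell protease reagent (CellTiter-Fluor) was read after 30 min.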

Experiment [4] can be described thus: qHTS assay to identify small molecule agonists of the hypoxia (HIF-1) signaling pathway - cell viability counter screen (AID 1224844; calls by dose curve; further: nearly all actives have a fitted effect of over 50% in size). An outline of the steps:
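Cells (HRE-bla ME-180, 2,000 per well) sat 5 hrs at 37C, got compound for 17 hrs, were read for CCF4-AM FRET, and were finally lysed with CellTiter-Glo for a 30 min room-temperature luminescence read.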

Experiment [5] in a line: qHTS assay to identify small molecule agonists of the hypoxia (HIF-1) signaling pathway (AID 1224846; active means well fitted activation curve with a large enough effect in the signal ratio in the repeat runs, not every such curve was filed as active; the % refers to the signal ratio). To be noted: HRE-bla ME-180 cells, beta-lactamase ratio, 17 h. The essentials: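 A low-serum medium (0.5% dialyzed FBS) holding 2,000 HRE-bla ME-180 cells per well is preincubated for 5 hrs, dosed with compounds by pintool, and kept a further 17 hrs at 37C, 5% CO2 before CCF4-AM FRET detection of beta-lactamase.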

Experiment [6] is described as follows: qHTS RealTime-Glo MT Cell Viability Assay in HepG2 cells - 40 hour (AID 1224870). Further: nearly all actives have a fitted effect of over 50% in size. Further: potency means the concentration at half of the fitted maximal effect. The essentials: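 HepG2 cells (600/well) mixed with RealTime-Glo MT reagent, settled 5 h at 37 C/5% CO2 before compound addition. Nonlytic NanoLuc luminescence from viable-cell prosubstrate reduction read repeatedly during 40 h treatment at 37 C.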
Experiment [7] in a line: A CellTox Green Cytotoxicity Assay to monitor cytotoxicity in HEK293 cells - 40 hour (AID 1224871). Further: nearly all actives have a fitted effect of over 45% in size. An outline of the steps: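 Fluorescence intensity, read at 0, 8, 16, 24, 32 and 40 h of compound treatment, reflected dye binding to DNA of dead HEK293 cells; compounds (23 nL, DMSO) were added 5 h after plating cells with reagent.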
Experiment [8] in a line: qHTS RealTime-Glo MT Cell Viability Assay in HEK293 cells - 16 hour (AID 1224872). Further: top concentration of the series differs between compounds; nearly all actives have a fitted effect of over 50% in size. An outline of the steps:
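Assay medium contained NanoLuc luciferase plus cell-permeant prosubstrate, added with HEK293 cells at 600 cells/well. After 5 h at 37 C/5% CO2 compounds were added; plates stayed at 37 C for 40 h with serial luminescence reads.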

Experiment [9] can be described thus: qHTS RealTime-Glo MT Cell Viability Assay in HEK293 cells - 40 hour (AID 1224874). Further: nearly all actives have a fitted effect of over 50% in size. Further: potency means the concentration at half of the fitted maximal effect. To be noted: RealTime-Glo luminescence; max response: active compounds read low. The essentials:
(§1)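 Viable HEK293 cells reduce a cell-permeant prosubstrate; the product diffuses out and is consumed by NanoLuc in the medium to give light. Compounds went in after a 5 h incubation and plates were read over the treatment course.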

Experiment [10] in a line: qHTS RealTime-Glo MT Cell Viability Assay in HepG2 cells - 32 hour (AID 1224877). Further: nearly all actives have a fitted effect of over 55% in size. Further: potency means the concentration at half of the fitted maximal effect. An outline of the steps: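 qHTS, HepG2, 600 cells/well, RealTime-Glo (NanoLuc + prosubstrate) added with cells; 5 h preincubation; DMSO compound addition; 37 C; luminescence at 0/8/16/24/32/40 h.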
Experiment [11] is described as follows: A CellTox Green Cytotoxicity Assay to monitor cytotoxicity in HepG2 cells - 24 hour (AID 1224878). Further: nearly all actives have a fitted effect of over 45% in size. Further: potency means the concentration at half of the fitted maximal effect. The essentials: (§2)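 Using 1536-well format, dye-containing HepG2 suspension was seeded, allowed 5 h at 37 C/5% CO2, dosed by pintool with compounds, positive and negative controls, and imaged for fluorescence across 40 h.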
The nature of experiment [12]: A CellTox Green Cytotoxicity Assay to monitor cytotoxicity in HepG2 cells - 40 hour (AID 1224879). Further: nearly all actives have a fitted effect of over 40% in size. Further: potency means the concentration at half of the fitted maximal effect. An outline of the steps: as §2
Experiment [13] can be described thus: qHTS RealTime-Glo MT Cell Viability Assay in HEK293 cells - 0 hour (AID 1224880). Further: top concentration of the series differs between compounds; nearly all actives have a fitted effect of over 45% in size. To be noted: RealTime-Glo luminescence. The essentials:
as §1

A short description of experiment [14]: A CellTox Green Cytotoxicity Assay to monitor cytotoxicity in HepG2 cells - 0 hour (AID 1224882). Further: nearly all actives have a fitted effect of over 35% in size. To be noted: CellTox Green fluorescence. The essentials: as §2
For experiment [15], the target named is Thyrotropin receptor (Homo sapiens) (UniProt P16473). Briefly: qHTS assay to identify small molecule agonists of the thyroid stimulating hormone receptor (TSHR) signaling pathway (AID 1224843; calls by dose curve; further: nearly all actives have a fitted effect of over 45% in size; further: potency means the concentration at half of the fitted maximal effect).
A short description of experiment [16]: qHTS assay to identify small molecule agonists of H2AX (AID 1224845; active means well fitted activation curve with a large enough effect in the signal ratio in the repeat runs, not every such curve was filed as active; the % refers to the signal ratio; further: potency means the concentration at half of the fitted maximal effect). The essentials:
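Wild-type CHO-K1 cells, plated overnight, exposed 3hr at 37C to 15 concentrations (0.76% DMSO final). Lysed, then HTRF anti-pH2AX (S139) cryptate and anti-H2AX-d2 antibodies, 24 hr room temperature; 665/620 nm emission read.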

Experiment [17] can be described thus: qHTS assay to identify small molecule agonists of the estrogen related receptor signaling pathway with the pleiotropic PPARgamma coactivator (PGC) from Tox21 10K library (AID 1224842). Further: nearly all actives have a fitted effect of over 15% in size. To be noted: PGC/ERR reporter cell line, luciferase ONE-Glo, 18 h; at 92.4 µM (top of the series) unless noted. An outline of the steps:
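PGC/ERR reporter cell line, 2,000 cells per well, incubated 6 h at 37 C before 23 nL compound in DMSO was added. After 18 h at 37 C, One-Glo luminescence read following 30 min at room temperature.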

Experiment [18] in a line: qHTS assay to identify small molecule agonists of the estrogen related receptor (ERR) signaling pathway from Tox21 library (AID 1224849; calls by dose curve; further: nearly all actives have a fitted effect of over 15% in size). Conditions: ERR reporter cell line, ONE-Glo luciferase, 18 h; at 92.4 µM (top of the series) unless noted. The essentials:
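Screening used an NTP-provided ERR luciferase cell line. Compounds in DMSO were added 6 h after seeding and left 18 h at 37 C before a 30 min ONE-Glo step and luminescence reading.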

A short description of experiment [19]: qHTS assay to identify small molecule antagonists of the estrogen related receptor signaling pathway with the pleiotropic PPARgamma coactivator (PGC) from Tox21 10K library (AID 1224841; call rule not given here).
The nature of experiment [20]: qHTS assay to identify small molecule antagonists of the estrogen related receptor (ERR) signaling pathway from Tox21 library (AID 1224848). Further: nearly all actives have a fitted effect of over 50% in size. An outline of the steps:
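ERR reporter cell line (from NTP) seeded 2,000 cells/well, rested 6 h at 37 C/5% CO2, then pin-dosed with compounds in DMSO. After 18 h at 37 C, ONE-Glo added; luminescence read after 30 min at room temperature.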

Setting [21] is: at 92.4 µM (top of the series) unless noted.
[22] abbreviates: at 76.8 µM (top of the series) unless noted.

Values joined by “and” are separate entries in the source; they are usually repeats but may differ in a detail not shown here. Equal entries are not always repeated. This is a selection; strong and weak results do not stand in their true shares. Results filed as inconclusive are left out. Active and inactive are the calls of the source. Unless noted, the call rests on the fitted dose curve; in most records, active means well fitted curve in the direction sought with a large enough effect in the repeat runs; inconclusive means weak or mixed curves; inactive means no such curve, though single readings can be large; an effect the other way counts as inactive or inconclusive.
On the % scale 0 is the no-effect control and ±100 the full control effect.

In the case of `NC(=O)Nc1ccc([As](=O)(O)O)cc1`, the Potency entry in experiment [1], in experiment [4], in [6], in [7], in experiment [8] and in experiment [10] was “inactive” in each case. In addition, the Potency entry in [11] and in experiment [12] was “inactive” each time. Moreover, the activation in experiment [2] (at 42.5 µM (top of the series)) was inactive: -0.403%; in experiment [2] (at 92.4 µM (top of the series)) it was inactive: -0.0597%; in experiment [5] (at 35.5 µM (top of the series)), inactive: -0.456%; in [5] (at 76.8 µM (top of the series)), inactive: 0.0793%. Besides, the viability change, negative = cytotoxic in experiment [3] (at 42.5 µM (top of the series)) is inactive: -0.613%; in experiment [3] (at 92.4 µM (top of the series)) it was inactive: -1.96%. In addition, in experiment [9], the max response is inactive: 5.29% and inactive: -0.318%. Moreover, the activity change, negative = cytotoxicity in experiment [13] (at 35.3 µM (top of the series)) was inactive: -3.42%; in experiment [13] (at 76.8 µM (top of the series)), inactive: 4.29%. The results for the cytotoxicity in experiment [14] (at 35.3 µM (top of the series)) and in [14] (at 76.8 µM (top of the series)) were inactive: -11.8% and inactive: -7.31%, respectively.
`CN(C(=O)Cc1cccc2occc12)[C@H]1CC[C@@]2(CCCO2)C[C@@H]1N1CCCC1`: the Potency result in experiment [1], in experiment [15], in [4], in experiment [16], in experiment [6] and in experiment [7] was “inactive” each time. For the same molecule, the Potency entry in [8], in [10], in [11] and in experiment [12] was “inactive” throughout. Also, the values for the activation in [2] (setting [21]) and in [5] (setting [22]) were inactive: -3.67% and inactive: -1.29%, respectively. For the same molecule, the viability change, negative = cytotoxic in [3] (setting [21]) is inactive: -8.15%. For the same molecule, the max response in experiment [9] is inactive: 11.7%. Besides, the activity change, negative = cytotoxicity in [13] (setting [22]) is inactive: 2.53%. In addition, the cytotoxicity in experiment [14] (setting [22]) is inactive: -3.88%.
`O=C1C2CC=CCC2C(=O)N1SC(Cl)(Cl)C(Cl)Cl` (centres undefined): the activation was inactive: -16.5% and inactive: -25.5% in experiment [2] (setting [21]); inactive: -27.6% and inactive: -40% in experiment [17]. The Potency in experiment [15] was active: 7.7 µM; in experiment [16] it was active: 6.4 µM and active: 3.18 µM; in [6] it was active: 44 µM and active: 4.9 µM; in experiment [10], active: 44 µM and active: 4.9 µM. Moreover, the activity change, positive = activation in experiment [18] is inactive: -43% and inactive: -79.7%. For the same molecule, in experiment [13] (setting [22]), the activity change, negative = cytotoxicity was inactive: -18.9% and inactive: -7.05%. In experiment [14] (setting [22]), the cytotoxicity is inactive: -1.7% and inactive: -3.94%.
As to `CN(N=O)C(=N)N[N+](=O)[O-]`, the activation in [2] (setting [21]) is inactive: -8.27%; in experiment [17], inactive: -11.3%; in experiment [5] (setting [22]) it was inactive: 0.0404%. In addition, in [3] (setting [21]), the viability change, negative = cytotoxic was inactive: -11.1%. Also, the Potency result in experiment [19], in experiment [15], in [20], in [6], in [7] and in [8] was “inactive” each time. Further, the Potency entry in [10], in experiment [11] and in experiment [12] was “inactive” each time. In addition, the Potency in [16] is active: 17.8 µM; in experiment [9], active: 34.4 µM. In addition, the activity change, positive = activation in experiment [18] is inactive: 1.32%. Further, the activity change, negative = cytotoxicity in experiment [13] (setting [22]) is inactive: -0.742%. Moreover, the cytotoxicity in experiment [14] (setting [22]) is inactive: 1.05%.
Consider `CCOC(=O)Cl`, for which the Potency entry in experiment [1], in experiment [15], in [4], in experiment [16], in [6] and in experiment [7] was “inactive” throughout. Moreover, the Potency result in experiment [8], in experiment [10] and in experiment [11] was “inactive” in each case. Besides, the activation in experiment [2] (setting [21]) is inactive: -0.502%; in experiment [5] (setting [22]) it was inactive: -1.05%. Besides, the viability change, negative = cytotoxic in [3] (setting [21]) is inactive: 3.16%. In experiment [9], the max response is inactive: 14.1%. Further, the activity change, negative = cytotoxicity in experiment [13] (setting [22]) was inactive: -0.614%. For the same molecule, the cytotoxicity in experiment [14] (setting [22]) was inactive: -5.75%.
As to `CCNC(C)Cc1ccc2c(c1)OCO2` (centres undefined), the Potency entry in [1], in experiment [19], in experiment [15], in experiment [4], in [16] and in experiment [20] was “inactive” throughout. Moreover, the Potency entry in [6], in experiment [7], in experiment [8], in [10], in [11] and in [12] was “inactive” throughout. Moreover, the figures for the activation in [2] (setting [21]) and in experiment [17] were inactive: -1.99% and inactive: -1.63%, respectively. In experiment [3] (setting [21]), the viability change, negative = cytotoxic was inactive: 16.5%. Further, the activity change, positive = activation in experiment [18] was inactive: 12.7%. Further, the max response in experiment [9] was inactive: -12.9%. The activity change, negative = cytotoxicity in experiment [13] (setting [22]) is inactive: -2.42%. Also, the cytotoxicity in experiment [14] (setting [22]) is inactive: 1.28%.
Regarding `CC(C)CCCCCCCOP(OCCCCCCCC(C)C)Oc1ccccc1`, the Potency entry in [1], in experiment [19], in [4], in experiment [16], in [6] and in [7] was “inactive” each time. Further, the Potency result in experiment [8] and in experiment [10] was “inactive” in each case. For the same molecule, the activation in experiment [2] (setting [21]) was inactive: 10.7%; in [17], inactive: -5.99%; in [5] (setting [22]) it was inactive: 0.838%. Also, the viability change, negative = cytotoxic in experiment [3] (setting [21]) was inactive: 2.99%. Moreover, the activity change, positive = activation in experiment [18] was inactive: -20.1%. For the same molecule, the max response in experiment [9] was inactive: -19.5%. Besides, the Potency in experiment [11] and in experiment [12] was active: 61.6 µM in each case. For the same molecule, in [13] (setting [22]), the activity change, negative = cytotoxicity is inactive: -4.25%. In addition, in experiment [14] (setting [22]), the cytotoxicity is inactive: 0.263%.
